Assay results as given in patent US20230277570A1, “ENPP1 Inhibitors and Their Use for the Treatment of Cancer” (The Board of Trustees of the Leland Stanford Junior …, priority 2017, published 2023).

System: 4T1-luciferase tumor
Test: 4T1 tumor model: tumor volume and survival with IR, cGAMP, anti-CTLA-4
Type: in vivo, Balb/c mice

Compound: COc1cc2ncnc(N3CCC(CCP(=O)(O)O)CC3)c2cc1OC [Compound 1, dimethyl (2-(1-(6,7-dimethoxyquinazolin-4-yl)piperidin-4-yl)ethyl)phosphonic acid]
- cure rate (20 Gy IR, then compound 1 in addition to 10 μg cGAMP intratumorally): 10%
- cure rate (IR pretreatment with 1 mM compound 1 intratumorally and 200 μg anti-CTLA-4 intraperitoneally): 10%
